From US20240360179A1, “STAPLED PEPTIDES AND METHODS THEREOF” (FOG PHARMACEUTICALS, INC., priority 2021, published 2024)

Amino acid sequences for entries named in this document (tags omitted).
UniProt P35222, whole entry: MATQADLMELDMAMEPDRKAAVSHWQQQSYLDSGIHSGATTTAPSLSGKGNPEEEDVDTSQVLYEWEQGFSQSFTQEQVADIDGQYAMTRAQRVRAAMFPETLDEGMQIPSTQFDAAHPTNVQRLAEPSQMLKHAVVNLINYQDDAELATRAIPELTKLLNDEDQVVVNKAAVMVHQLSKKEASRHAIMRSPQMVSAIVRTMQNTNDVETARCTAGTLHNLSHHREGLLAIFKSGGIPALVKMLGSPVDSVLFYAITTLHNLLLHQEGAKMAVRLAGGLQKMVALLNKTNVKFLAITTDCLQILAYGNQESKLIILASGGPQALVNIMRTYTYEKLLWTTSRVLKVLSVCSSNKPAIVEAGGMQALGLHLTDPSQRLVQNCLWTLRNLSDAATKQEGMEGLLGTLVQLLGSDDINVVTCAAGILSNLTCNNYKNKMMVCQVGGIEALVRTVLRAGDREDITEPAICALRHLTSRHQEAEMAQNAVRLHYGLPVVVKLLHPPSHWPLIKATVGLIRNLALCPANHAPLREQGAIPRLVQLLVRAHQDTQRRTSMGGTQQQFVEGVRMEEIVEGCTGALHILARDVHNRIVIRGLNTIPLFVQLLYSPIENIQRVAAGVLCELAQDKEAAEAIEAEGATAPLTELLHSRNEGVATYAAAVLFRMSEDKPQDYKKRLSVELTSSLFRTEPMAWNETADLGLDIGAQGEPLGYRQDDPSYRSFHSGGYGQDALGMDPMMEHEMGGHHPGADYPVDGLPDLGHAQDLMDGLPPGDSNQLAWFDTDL

Tests used:
[1] = target: T1, full-length B-Catenin (Uniprot ID P35222) (Homo sapiens, UniProt P35222); assay: biochemical; format: binding; details: beta-Catenin FP IC50 (nM), competition fluorescence polarization
T1 construct: 10 nM full-length B-Catenin (Uniprot ID P35222)

[2] = target: beta-catenin/TCF4 interaction (Homo sapiens, UniProt P35222); assay: cell-based; design: host or cells: HEK293; details: NanoBRET Abs IC50 (uM)

SMILES	IC50 [1]	IC50 [2]
CC(=O)N1CCC[C@]12CC=CCCCC1(CCCC=CCCCOC(=O)N3CC[C@@]4(C3)NC(=O)[C@H](CCCCNC(=O)CC[C@@H](C(=O)N[C@@H](CC(C)C)C(=O)N[C@@H](CO)C(N)=O)NC(=O)[C@H](Cc3csc5ccccc35)NC(=O)[C@H](Cc3ccccc3C(F)(F)F)NC4=O)NC(=O)[C@H](Cc3ccccc3)NC(=O)[C@H](C)NC(=O)C(C)(C)NC(=O)[C@H](Cc3cccc(C(=O)O)c3)NC(=O)[C@H](CC(=O)O)NC1=O)NC(=O)[C@H](CC(C)(C)C)NC(=O)[C@H](CC(=O)O)NC2=O (relative stereo) [I-138, Ac-PL3-Asp-Npg-B5-Asp-3COOHF-Aib-Ala-Phe-Lys*3-PyrS2-2F3MeF-BztA-GlnR*3-Leu-Ser-NH2]	< 50 nM	1.5 to 3 µM
CC(=O)N1CCC[C@]12CC=CCCCC1(CCCC=CCCCOC(=O)N3CC[C@@]4(C3)NC(=O)[C@H](CCCCNC(=O)CC[C@@H](C(=O)N[C@@H](CC(C)C)C(=O)N[C@@H](CO)C(N)=O)NC(=O)[C@H](Cc3csc5ccccc35)NC(=O)[C@H](Cc3ccccc3C(F)(F)F)NC4=O)NC(=O)[C@H](Cc3ccccc3)NC(=O)[C@H](C)NC(=O)C3(CC3)NC(=O)[C@H](Cc3cccc(C(=O)O)c3)NC(=O)[C@H](CC(=O)O)NC1=O)NC(=O)[C@H](CC(C)(C)C)NC(=O)[C@H](CC(=O)O)NC2=O (relative stereo) [I-139, Ac-PL3-Asp-Npg-B5-Asp-3COOHF-Cpg-Ala-Phe-Lys*3-PyrS2-2F3MeF-BztA-GlnR*3-Leu-Ser-NH2]	< 50 nM	1.5 to 3 µM
CC(=O)N1CCC[C@]12CC=CCCCC1(CCCC=CCCCOC(=O)N3CC[C@@]4(C3)NC(=O)[C@H](CCCCNC(=O)CC[C@@H](C(=O)N[C@@H](CC(C)C)C(=O)N[C@@H](CO)C(N)=O)NC(=O)[C@H](Cc3csc5ccccc35)NC(=O)[C@H](Cc3ccccc3C(F)(F)F)NC4=O)NC(=O)[C@H](Cc3ccccc3)NC(=O)[C@H](C)NC(=O)C3(CCC3)NC(=O)[C@H](Cc3cccc(C(=O)O)c3)NC(=O)[C@H](CC(=O)O)NC1=O)NC(=O)[C@H](CC(C)(C)C)NC(=O)[C@H](CC(=O)O)NC2=O (relative stereo) [I-140, Ac-PL3-Asp-Npg-B5-Asp-3COOHF-Cbg-Ala-Phe-Lys*3-PyrS2-2F3MeF-BztA-GlnR*3-Leu-Ser-NH2]	< 50 nM	< 1.5 µM
CC(=O)N1CCC[C@]12CC=CCCCC1(CCCC=CCCCOC(=O)N3CC[C@@]4(C3)NC(=O)[C@H](CCCCNC(=O)CC[C@@H](C(=O)N[C@@H](CC(C)C)C(=O)N[C@@H](CO)C(N)=O)NC(=O)[C@H](Cc3csc5ccccc35)NC(=O)[C@H](Cc3ccccc3C(F)(F)F)NC4=O)NC(=O)[C@H](Cc3ccccc3)NC(=O)[C@H](C)NC(=O)C3(CCCC3)NC(=O)[C@H](Cc3cccc(C(=O)O)c3)NC(=O)[C@H](CC(=O)O)NC1=O)NC(=O)[C@H](CC(C)(C)C)NC(=O)[C@H](CC(=O)O)NC2=O (relative stereo) [I-141, Ac-PL3-Asp-Npg-B5-Asp-3COOHF-CyLeu-Ala-Phe-Lys*3-PyrS2-2F3MeF-BztA-GlnR*3-Leu-Ser-NH2]	< 50 nM	1.5 to 3 µM
CC(=O)N1CCC[C@]12CC=CCCCC1(CCCC=CCCCOC(=O)N3CC[C@@]4(C3)NC(=O)[C@H](CCCCNC(=O)CC[C@@H](C(=O)N[C@@H](CC(C)C)C(=O)N[C@@H](CO)C(N)=O)NC(=O)[C@H](Cc3csc5ccccc35)NC(=O)[C@H](Cc3ccccc3C(F)(F)F)NC4=O)NC(=O)[C@H](Cc3ccccc3)NC(=O)[C@H](C)NC(=O)[C@H](C)NC(=O)[C@H](Cc3cccc(C(=O)O)c3)NC(=O)[C@H](CC(=O)O)NC1=O)NC(=O)[C@H](CC(C)(C)C)NC(=O)[C@H](CC(N)=O)NC2=O (relative stereo) [I-142, Ac-PL3-Asn-Npg-B5-Asp-3COOHF-Ala-Ala-Phe-Lys*3-PyrS2-2F3MeF-BztA-GlnR*3-Leu-Ser-NH2]	200 to 750 nM	3 to 10 µM
CCCC[C@@H]1NC(=O)[C@H](Cc2cccc(C(=O)O)c2)NC(=O)[C@H](CC(=O)O)NC(=O)C2(CCCC=CCCCOC(=O)N3CC[C@@]4(C3)NC(=O)[C@H](CCCCNC(=O)CC[C@@H](C(=O)N[C@@H](CC(C)C)C(=O)N[C@@H](CO)C(N)=O)NC(=O)[C@H](Cc3csc5ccccc35)NC(=O)[C@H](Cc3ccccc3C(F)(F)F)NC4=O)NC(=O)[C@H](Cc3ccccc3)NC(=O)[C@H](C)NC1=O)CCCC=CC[C@]1(CCCN1C(C)=O)C(=O)N[C@@H](CC(N)=O)C(=O)N[C@@H](CC(C)(C)C)C(=O)N2 (relative stereo) [I-143, Ac-PL3-Asn-Npg-B5-Asp-3COOHF-nLeu-Ala-Phe-Lys*3-PyrS2-2F3MeF-BztA-GlnR*3-Leu-Ser-NH2]	200 to 750 nM	> 10 µM
CC(=O)N1CCC[C@]12CC=CCCCC1(CCCC=CCCCOC(=O)N3CC[C@@]4(C3)NC(=O)[C@H](CCCCNC(=O)CC[C@@H](C(=O)N[C@@H](CC(C)C)C(=O)N[C@@H](CO)C(N)=O)NC(=O)[C@H](Cc3csc5ccccc35)NC(=O)[C@H](Cc3ccccc3C(F)(F)F)NC4=O)NC(=O)[C@H](Cc3ccccc3)NC(=O)[C@H](C)NC(=O)C(C)(C)NC(=O)[C@H](Cc3cccc(C(=O)O)c3)NC(=O)[C@H](CC(=O)O)NC1=O)NC(=O)[C@H](CC(C)(C)C)NC(=O)[C@H](CC(N)=O)NC2=O (relative stereo) [I-144, Ac-PL3-Asn-Npg-B5-Asp-3COOHF-Aib-Ala-Phe-Lys*3-PyrS2-2F3MeF-BztA-GlnR*3-Leu-Ser-NH2]	< 50 nM	3 to 10 µM
CC(=O)N1CCC[C@]12CC=CCCCC1(CCCC=CCCCOC(=O)N3CC[C@@]4(C3)NC(=O)[C@H](CCC(=O)NCCCC[C@@H](C(N)=O)NC(=O)[C@H](Cc3csc5ccccc35)NC(=O)[C@H](Cc3ccccc3)NC4=O)NC(=O)[C@H](Cc3ccccc3)NC(=O)[C@H](C)NC(=O)[C@H](CCCCNC(C)C)NC(=O)[C@H](CCC(N)=O)NC(=O)[C@H](CC(=O)O)NC1=O)NC(=O)[C@H](CC1CCCCC1)NC(=O)[C@H](CC(N)=O)NC2=O (relative stereo) [I-149, Ac-PL3-Asn-Cha-B5-Asp-Gln-iPrLys-Ala-Phe-GlnR*3-PyrS2-Phe-BztA-Lys*3-NH2]	200 to 750 nM	> 10 µM
CC(=O)N1CCC[C@]12CC=CCCCC1(CCCC=CCCCOC(=O)N3CC[C@@]4(C3)NC(=O)[C@H](CCC(=O)NCCCC[C@@H](C(N)=O)NC(=O)[C@H](Cc3csc5ccccc35)NC(=O)[C@H](Cc3ccsc3)NC4=O)NC(=O)[C@H](Cc3ccccc3)NC(=O)[C@H](C)NC(=O)[C@H](CCO)NC(=O)[C@H](CCC(N)=O)NC(=O)[C@H](CC(=O)O)NC1=O)NC(=O)[C@H](CC1CCCCC1)NC(=O)[C@H](CC(N)=O)NC2=O (relative stereo) [I-151, Ac-PL3-Asn-Cha-B5-Asp-Gln-Hse-Ala-Phe-GlnR*3-PyrS2-3Thi-BztA-Lys*3-NH2]	50 to 200 nM	> 10 µM
CC(=O)N1CCC[C@]12CC=CCCCC1(CCCC=CCCCOC(=O)N3CC[C@@]4(C3)NC(=O)[C@H](CCCCNC(=O)CC[C@@H](C(=O)N[C@@H](C)C(N)=O)NC(=O)[C@H](Cc3csc5ccccc35)NC(=O)[C@H](Cc3ccsc3)NC4=O)NC(=O)[C@H](Cc3ccccc3)NC(=O)[C@H](C)NC(=O)C(C)(C)NC(=O)[C@H](Cc3cccc(C(=O)O)c3)NC(=O)[C@H](CC(=O)O)NC1=O)NC(=O)[C@H](CC(C)(C)C)NC(=O)[C@H](CC(N)=O)NC2=O (relative stereo) [I-159, Ac-PL3-Asn-Npg-B5-Asp-3COOHF-Aib-Ala-Phe-Lys*3-PyrS2-3Thi-BztA-GlnR*3-Ala-NH2]	< 50 nM	1.5 to 3 µM
CC(=O)N1CCC[C@]12CC=CCCCC1(CCCC=CCCCOC(=O)N3CC[C@@]4(C3)NC(=O)[C@H](CCCCNC(=O)CC[C@@H](C(=O)N[C@@H](C)C(N)=O)NC(=O)[C@H](Cc3csc5ccccc35)NC(=O)[C@H](Cc3ccsc3)NC4=O)NC(=O)[C@H](Cc3ccccc3)NC(=O)[C@H](C)NC(=O)C(C)(C)NC(=O)[C@H](Cc3cccc(C(=O)O)c3)NC(=O)[C@H](CC(=O)O)NC1=O)NC(=O)[C@H](CC(C)(C)C)NC(=O)[C@H](CO)NC2=O (relative stereo) [I-160, Ac-PL3-Ser-Npg-B5-Asp-3COOHF-Aib-Ala-Phe-Lys*3-PyrS2-3Thi-BztA-GlnR*3-Ala-NH2]	< 50 nM	3 to 10 µM
CC(=O)N1CCC[C@]12CC=CCCCC1(CCCC=CCCCOC(=O)N3CC[C@@]4(C3)NC(=O)[C@H](CCCCNC(=O)CC[C@@H](C(=O)N[C@@H](C)C(N)=O)NC(=O)[C@H](Cc3csc5ccccc35)NC(=O)[C@H](Cc3ccsc3)NC4=O)NC(=O)[C@H](Cc3ccccc3)NC(=O)[C@H](C)NC(=O)C(C)(C)NC(=O)[C@H](Cc3cccc(C(=O)O)c3)NC(=O)[C@H](CC(=O)O)NC1=O)NC(=O)[C@H](CC(C)(C)C)NC(=O)[C@H](CCO)NC2=O (relative stereo) [I-162, Ac-PL3-Hse-Npg-B5-Asp-3COOHF-Aib-Ala-Phe-Lys*3-PyrS2-3Thi-BztA-GlnR*3-Ala-NH2]	200 to 750 nM	> 10 µM
CC(=O)N1CCC[C@]12CC=CCCCC1(CCCC=CCCCOC(=O)N3CC[C@@]4(C3)NC(=O)[C@H](CCCCNC(=O)CC[C@@H](C(=O)N[C@@H](C)C(N)=O)NC(=O)[C@H](Cc3csc5ccccc35)NC(=O)[C@H](Cc3ccsc3)NC4=O)NC(=O)[C@H](Cc3ccccc3)NC(=O)[C@H](C)NC(=O)C(C)(C)NC(=O)[C@H](Cc3cccc(C(=O)O)c3)NC(=O)[C@H](CC(=O)O)NC1=O)NC(=O)[C@H](CC(C)(C)C)NC(=O)[C@H]([C@H](C)O)NC2=O (relative stereo) [I-163, Ac-PL3-aThr-Npg-B5-Asp-3COOHF-Aib-Ala-Phe-Lys*3-PyrS2-3Thi-BztA-GlnR*3-Ala-NH2]	< 50 nM	3 to 10 µM
CNC(=O)C[C@@H]1NC(=O)[C@]2(CC=CCCCC3(CCCC=CCCCOC(=O)N4CC[C@@]5(C4)NC(=O)[C@H](CCCCNC(=O)CC[C@@H](C(=O)N[C@@H](C)C(N)=O)NC(=O)[C@H](Cc4csc6ccccc46)NC(=O)[C@H](Cc4ccsc4)NC5=O)NC(=O)[C@H](Cc4ccccc4)NC(=O)[C@H](C)NC(=O)C(C)(C)NC(=O)[C@H](Cc4cccc(C(=O)O)c4)NC(=O)[C@H](CC(=O)O)NC3=O)NC(=O)[C@H](CC(C)(C)C)NC1=O)CCCN2C(C)=O (relative stereo) [I-164, Ac-PL3-MeAsn-Npg-B5-Asp-3COOHF-Aib-Ala-Phe-Lys*3-PyrS2-3Thi-BztA-GlnR*3-Ala-NH2]	50 to 200 nM	> 10 µM
